Source: paper PMC3005981 (Basic & clinical pharmacology & toxicology, 2010)

Experiments:
[1] = test system: CYP2D6; test: in vitro; details: human, microsomes
[2] = test system: CYP3A4/5; test: in vitro; details: human, microsomes, HLM

## CNCCC(Oc1ccc(C(F)(F)F)cc1)c1ccccc1 (centres unmarked) [Fluoxetine, fluoxetine]
[1]; % Inhibition of (R)-EDDP production, HLM
  inhibition at 30 min, 10 µM: 23.8%
[1]; % Inhibition of (S)-EDDP production, HLM
  inhibition at 30 min, 10 µM: 23.5%
[1]; Inhibition of (R)- and (S)-EDDP formation
  inhibition at 30 min, 10 µM: < 30%
[2]; % Inhibition of (R)-EDDP production
  inhibition at 15 min, 10 µM: 11.6%
[2]; % Inhibition of (S)-EDDP production
  inhibition at 15 min, 10 µM: 12.1%
